Target: GLP-1R (glucagon-like peptide-1 receptor) of mouse pancreatic islets (mouse) (UniProt O35659)
Assay: competition radioligand binding on mouse pancreatic islet cells; displacement of [125I] Bolton-Hunter labeled Exendin(9-39); filter separation, gamma counter

| Substance | IC50 [nM] |
| --- | --- |
| (^127IB-PEG3)12-Ex4 (formula (33), SEQ ID NO. 33) (peptide) | 2.6 |
| (^127IB-PEG3)40-Ex4 (formula (34), SEQ ID NO. 34) (peptide) | 2.7 |
